Values of other authors, collected in patent publication US8236827B2, “Compounds” (Spear Therapeutics Limited, priority 2009, dated 2012).

Molecular target: T1, Human Cytochrome P450 1B1 (Homo sapiens, UniProt Q16678)
T1 sequence (Q16678 1-543): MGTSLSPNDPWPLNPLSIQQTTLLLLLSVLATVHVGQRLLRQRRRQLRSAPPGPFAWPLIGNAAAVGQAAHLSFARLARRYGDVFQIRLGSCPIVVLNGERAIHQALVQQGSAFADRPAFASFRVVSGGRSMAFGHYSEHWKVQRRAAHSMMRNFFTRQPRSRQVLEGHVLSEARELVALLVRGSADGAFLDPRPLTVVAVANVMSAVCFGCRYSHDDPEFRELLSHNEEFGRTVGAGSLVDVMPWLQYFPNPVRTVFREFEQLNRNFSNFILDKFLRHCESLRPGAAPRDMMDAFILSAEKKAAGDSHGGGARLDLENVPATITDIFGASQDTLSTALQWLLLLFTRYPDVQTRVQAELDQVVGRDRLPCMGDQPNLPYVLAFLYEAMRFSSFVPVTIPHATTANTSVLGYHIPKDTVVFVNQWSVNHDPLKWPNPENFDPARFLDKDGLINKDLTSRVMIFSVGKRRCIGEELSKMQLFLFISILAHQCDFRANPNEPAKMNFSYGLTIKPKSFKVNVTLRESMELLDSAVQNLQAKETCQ
Conditions: cited from earlier work

Substance: Tetramethoxystilbene
- fold selective for CYP1B1 over CYP1A1: 30 fold
